Measured values as given in patent publication US10724010B2, “Recombinantly engineered cells expressing chlorite dismutase and methods for using same in cell culture” (The Regents of the University of California, priority 2013, dated 2020).

Conditions: starting concentration 500 μM

Substance: chlorite
- chlorite still present in each culture (after six hours, cultures of KR260, KR3557 or both, PYE, 30° C): ~0.3 mM
- rate of chlorite disappearance in the three cultures (KR260 vs KR3557 vs mixed culture): similar
